This test deals with c-Myc, P01106. As to the kind of experiment: cell-based or functional assay.

Regarding GRKKRRQRRRPPQNELKRAFAALRDQI (modifications not checked) [Tat-H1 (TAT cell targeting peptide fused to H1)], the decrease in Myc reporter activity at 1 mM was < 75%.

These data come from patent publication US20200354411A1, “Chimeric Molecule for Targeting c-Myc in Cells” (priority 2017, published 2020).
